Target: Polycomb protein EED (Homo sapiens, UniProt O75530)

The chains behind the UniProt entries cited, without tags or fusion partners.
UniProt O75530, whole entry: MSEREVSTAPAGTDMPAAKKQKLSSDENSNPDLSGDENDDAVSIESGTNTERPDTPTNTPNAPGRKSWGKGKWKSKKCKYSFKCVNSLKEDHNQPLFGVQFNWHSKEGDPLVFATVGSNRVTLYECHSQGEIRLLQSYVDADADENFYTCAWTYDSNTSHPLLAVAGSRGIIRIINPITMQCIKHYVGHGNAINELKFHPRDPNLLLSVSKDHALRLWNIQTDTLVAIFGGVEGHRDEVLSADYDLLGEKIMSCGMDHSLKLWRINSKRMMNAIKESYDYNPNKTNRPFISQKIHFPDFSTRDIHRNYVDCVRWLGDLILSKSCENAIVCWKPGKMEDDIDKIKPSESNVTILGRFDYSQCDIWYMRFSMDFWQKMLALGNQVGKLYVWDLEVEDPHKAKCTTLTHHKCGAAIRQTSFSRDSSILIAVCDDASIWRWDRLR

With `c1ccc(-c2cnc(NCc3ccco3)n3cncc23)cc1` the IC50 was 0.26 µM.

`c1ccc(-c2cnc(NCc3ccco3)n3ccnc23)cc1` showed an IC50 of 20.5 µM.
